This is an account of results in PubChem BioAssay AID624256 (NMMLSC, 2012).

This is a selection; strong and weak results do not stand in their true shares. The source made the active and inactive calls.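 The calls were made as follows: active = normalized GFP-positive differentiation at or above the plate's own cutoff, the solvent-only control mean plus 3 SD; inconclusive = no clear call, values can overlap the other calls; inactive = the rest.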

This experiment is described as follows: induction of myeloid progenitor differentiation, primary screen, cell-based, flow cytometry, MLPCN library (AID 624256). Particulars: ER-HoxA9 myeloid progenitors, lysozyme-GFP differentiation, at 10 µM.
With `O=[As](O)(c1cccc(O)c1)c1cccc(O)c1`, the call was inactive.

Turning to `CCOC(=O)c1ccc(NP(C)(=O)Oc2cc(C)cc(C)c2)cc1` (stereo not drawn), the outcome was inactive. In the case of `Cc1ccc(NCCc2c([N+](=O)[O-])cc([N+](=O)[O-])cc2[N+](=O)[O-])cc1` it was “inactive”; in that of `Nc1cccc2c([As](=O)(O)O)cccc12`, “inactive”; in that of `Cc1cc(C)cc(OP(C)(=O)Nc2ccccn2)c1` (stereo not drawn), “inactive”. Regarding `CP(=O)(Nc1cccc(Br)c1)Oc1ccccc1` (stereo not drawn), the compound was called inactive. In the case of `Cc1ccc(C)c(NP(C)(=O)Oc2ccccc2)c1` (stereo not drawn), the outcome was inactive. Turning to `CCCOP(=S)(Nc1nc(N)cc(=O)[nH]1)OCCC`, the outcome was inactive.

Consider `CCOP(=O)(Nc1cccc2ccccc12)OCC`, for which the result was inactive. With `Cc1c2c(nc3ccccc13)SC(C(Cl)Cl)C2` (stereo not drawn), the compound was called inactive.

On to `Cc1cc(=O)[nH]c(N[N+](=O)[O-])n1`, for which the compound was classed as inactive. For `CCN(CC)CCCOC(=O)C(O)(c1ccccc1)c1ccccc1`, the compound was called inactive.

For `O=C(OC1CN2CCC1CC2)C12CC3CC(CC(C3)C1)C2` (stereo not drawn), the compound was called inactive. `O=P1(N(CCCl)CCCl)OCCCN1CCCl` (stereo not drawn): the outcome was inactive.

For `O=P1(N(CCCl)CCCl)Nc2ccccc2N1`, the call was inactive. Take `COc1cc(I)ccc1[As](=O)(O)O`: the result was inactive. Consider `COc1ccc2nc(NP(=O)(c3ccccc3)c3ccccc3)sc2c1`, for which the result was inactive. Regarding `O=[N+]([O-])c1cc(Oc2ccc([N+](=O)[O-])cc2C(F)(F)F)cc([N+](=O)[O-])c1`, the compound was called inactive. In the case of `COc1ccccc1-c1ccccn1.O=[N+]([O-])c1cc([N+](=O)[O-])c(O)c([N+](=O)[O-])c1`, the result was inactive. `COc1ccc(N/C(=N/P(=O)(N2CCOCC2)N2CCOCC2)N2CCOCC2)cc1`: the compound was called inactive. Turning to `O=[N+]([O-])c1cc([N+](=O)[O-])c(Nc2cccnc2)c([N+](=O)[O-])c1`, the compound was classed as inactive. As to `O=[N+]([O-])c1ccc(-c2cc([N+](=O)[O-])c(O)c([N+](=O)[O-])c2)cc1`, the call was inactive. Regarding `COc1cc(C(=O)NCC2(N3CCOCC3)CCCCC2)ccc1OCC(C)C`, the outcome was inactive.

On to `O=[As](O)(c1ccc(O)cc1)c1ccccc1O`, for which the compound was called inactive.

Consider `C[As](=O)(O)c1cccc(C(=O)O)c1`, for which the call was inactive. Consider `Cc1cccc(C)c1OP(C)(N)=O` (stereo not drawn), for which the result was inactive. Turning to `[N-]=[N+]=NC1CCCCC1NC(=O)c1cc([N+](=O)[O-])cc([N+](=O)[O-])c1` (stereo not drawn), the outcome was inactive. Take `Cc1ccc(OP(=O)(Nc2ccc([N+](=O)[O-])cn2)Oc2ccc(C)cc2)cc1`: the compound was classed as inactive. With `CC(C)(C)c1ccc(OP(C)(=O)Nc2ccc(SC(F)(F)F)cc2)cc1` (stereo not drawn), the result was inactive. On to `Cc1ccc2nc3c(c(C)c2c1)CC(C(Cl)Cl)S3` (stereo not drawn), for which the call was inactive. For the compound `ClCCSc1nnc(-c2cccnc2)o1`, the result was inactive. Regarding `CCOC(=O)c1ccc(NP(C)(=O)Oc2ccccc2)cc1` (stereo not drawn), the outcome was inactive. As for `COC(=O)C1(C)COP(=O)(N2CCCCCC2)OC1` (stereo not drawn), the compound was called inactive.

For `Cc1ccc(NP(C)(=O)Oc2ccccc2)c(C)c1` (stereo not drawn), the outcome was inactive. Take `CC(C)c1ccc(OP(=O)(Nc2ccccn2)Oc2ccccc2F)cc1` (stereo not drawn): the compound was called inactive. In the case of `COc1ccccc1OP(C)(=O)Nc1ccc(C)cc1` (stereo not drawn) it was “inactive”.

As to `COc1ccc(OP(C)(=O)Nc2cccc(F)c2)cc1` (stereo not drawn), the result was inactive. With `O=[N+]([O-])c1cc([N+](=O)[O-])c(-c2ccn[nH]2)s1`, the call was inactive. On to `CC(C)NC(=O)NP(=O)(Oc1ccccc1)Oc1ccccc1`, for which the compound was called inactive.

Consider `CCN(CC)C(=S)SC(NC=O)C(Cl)(Cl)Cl` (stereo not drawn), for which the compound was called inactive. In the case of `O=C(OC1CN2CCC1CC2)c1cccc2[nH]cnc12` (stereo not drawn) it was “inactive”; in that of `Cc1cc(C)cc(OP(C)(N)=O)c1` (stereo not drawn), “inactive”. In the case of `O=C(O)C(=O)c1ccc(N(CCCl)CCCl)cc1.c1ccc(Nc2ccccc2)cc1` it was “inactive”.

On to `CCOC(=O)Nc1ccc([As](=O)(O)O)c(O)c1`, for which the outcome was inactive. Turning to `CC1CCNP(=O)(N(CCCl)CCCl)O1` (stereo not drawn), the result was inactive.

For the compound `COP(=O)(OC)N1CC1c1ccccc1` (stereo not drawn), the result was inactive. Take `CCCCOc1ccc(C(=O)NCC2(N3CCCCC3)CCCCC2)cc1OC`: the outcome was inactive.

Turning to `CP(=S)(Nn1cnnc1)Oc1ccccc1` (stereo not drawn), the compound was classed as inactive. As for `CCOC(=O)Nc1cccc([As](=O)(O)O)c1`, the entry is “inactive”. `COc1ccccc1OP(C)(=O)Nc1ccccc1` (stereo not drawn): the compound was called inactive. For the compound `O=P(Nc1ccccn1)(c1cccc2ccccc12)c1cccc2ccccc12`, the compound was called inactive.

On to `Cc1cc(SC(NC=O)C(Cl)(Cl)Cl)ncn1` (stereo not drawn), for which the compound was classed as inactive. `O=[N+]([O-])c1ccc(Nc2ccc(Oc3ccc([N+](=O)[O-])cc3[N+](=O)[O-])cc2)c([N+](=O)[O-])c1`: the result was inactive. With `CP(=O)(Nc1ccccc1Br)Oc1ccccc1` (stereo not drawn), the outcome was inactive. In the case of `CP(=O)(Oc1ccccc1)OC(c1ccccc1)C(F)(F)F` (stereo not drawn) it was “inactive”; in that of `COC(=O)C1(C)COP(=O)(N2CCCC2)OC1` (stereo not drawn), “inactive”; in that of `COP1(=S)c2c(C)nn(CCC#N)c2N=C(c2ccc(F)cc2)N1C` (stereo not drawn), “inactive”. Regarding `Cc1ccc(Nc2c([N+](=O)[O-])cc([N+](=O)[O-])cc2[N+](=O)[O-])cc1`, the compound was called inactive. `Cc1cccc(C)c1OP(C)(=O)Nc1ccc(SC(F)(F)F)cc1` (stereo not drawn): the compound was classed as inactive. `CP(=O)(Nc1ccc(SC(F)(F)F)cc1)Oc1ccc(Cl)cc1` (stereo not drawn): the call was inactive. Turning to `Cc1cc(C)cc(OP(C)(=O)Nc2ccc(SC(F)(F)F)cc2)c1` (stereo not drawn), the outcome was inactive. On to `O=C(Nc1ccncc1[N+](=O)[O-])c1ccc([N+](=O)[O-])cc1[N+](=O)[O-]`, for which the outcome was inactive. As to `O=C(COc1ccccc1)OC1CN2CCC1CC2` (stereo not drawn), the result was inactive.

With `CP(=O)(NC(=O)Nc1ccccc1)Oc1ccccc1` (stereo not drawn), the result was inactive. With `CCc1ccc(OP(C)(=O)N2CCN(c3ccc([N+](=O)[O-])cc3)CC2)cc1` (stereo not drawn), the compound was classed as inactive. For the compound `CSc1ccc(Nc2c([N+](=O)[O-])cc([N+](=O)[O-])cc2[N+](=O)[O-])cc1`, the result was inactive.

As for `CCOP(C)(=S)SCC(=O)NC(C)C(=O)O` (stereo not drawn), the compound was called inactive. Consider `O=C(OC1CN2CCC1CC2)c1cccc([N+](=O)[O-])c1` (stereo not drawn), for which the result was inactive. Turning to `CCOC(=O)c1ccc(NC(=O)C(C)(CCl)SC)cc1` (stereo not drawn), the result was inactive. Take `CCOC(=O)c1ccc(NP(C)(=O)Oc2ccc(OC)cc2)cc1` (stereo not drawn): the compound was classed as inactive. For the compound `O=[N+]([O-])c1cc([N+](=O)[O-])c(O)c([N+](=O)[O-])c1.c1ccc(Oc2ccncc2)cc1`, the compound was classed as inactive. `CCC(C)N(CC(C)C)C(=S)SC(NC(C)=O)C(Cl)(Cl)Cl` (stereo not drawn): the compound was classed as inactive.

Turning to `CP(=O)(Nc1ccccn1)Oc1ccc(Cl)cc1` (stereo not drawn), the outcome was inactive. As for `COc1ccc(C2=NCC(CBr)S2)cc1` (stereo not drawn), the entry is “inactive”; as for `COc1ccc(OP(C)(=O)Nc2ccc(Br)cc2)cc1` (stereo not drawn), “inactive”; as for `CCN(CC)CC(O)COC(=O)C(O)(c1ccccc1)C1CCCCC1` (stereo not drawn), “inactive”. On to `CCc1ccc(OP(C)(=O)Nc2cccnc2)cc1` (stereo not drawn), for which the compound was classed as inactive.

As for `CP(=O)(Oc1ccccc1)N1CCOC1=O` (stereo not drawn), the outcome was inactive. Regarding `O=C(OCCCN1CCCC1)C(O)(c1ccccc1)C1CCCCC1` (stereo not drawn), the outcome was inactive.

Regarding `O=[N+]([O-])c1cccc2n[nH]nc12`, the result was inactive. On to `CC(=O)N1C2C3N(C(C)=O)C1C1N(C(C)=O)C(C(N1C(C)=O)N3C(C)=O)N2C(C)=O`, for which the compound was called inactive. In the case of `COc1ccccc1OP(C)(=O)Nc1c(C)n(C)n(-c2ccccc2)c1=O` (stereo not drawn), the compound was classed as inactive. With `CP(=O)(Nc1ccc(Cl)cc1)Oc1ccc(F)cc1` (stereo not drawn), the call was inactive. As for `CCN(/C(=N/P(=O)(N1CCOCC1)N1CCOCC1)N1CCOCC1)c1ccc(OC)cc1`, the entry is “inactive”. As to `C[N+]1=C2C=CC=CC=C2SC12C([N+](=O)[O-])=CC([N+](=O)[O-])=C[C-]2[N+](=O)[O-]` (stereo not drawn), the outcome was inactive.

`COc1ccccc1OP(C)(=O)Nc1ccccc1Br` (stereo not drawn): the outcome was inactive.

For the compound `CC(C)(C)c1ccc(OP(C)(=O)O)cc1`, the compound was called inactive.

With `Nc1ccc([As](=O)(O)c2ccc(N)cc2)cc1`, the call was inactive. Regarding `CC1CCN(C(=O)Oc2c(Cl)cc(Cl)c3cccnc23)CC1`, the compound was classed as inactive.

Consider `c1cc(-c2nn[nH]n2)ccc1-c1nn[nH]n1`, for which the compound was called inactive. Take `CN(C)C(=O)OCCc1n(C)cc[n+]1C`: the call was inactive. As for `CC(C)c1nc(Nc2ccccc2)n(P(=O)(N(C)C)N(C)C)n1`, the compound was classed as inactive. In the case of `CN(C)C(=O)c1c([N+](=O)[O-])cc([N+](=O)[O-])cc1[N+](=O)[O-]`, the outcome was inactive. In the case of `CC(C)=N/N=C(\N)N[N+](=O)[O-]` it was “inactive”; in that of `O=P1(N(CCCl)CCCl)OCCCS1` (stereo not drawn), “inactive”; in that of `CP(=O)(OC12CC3CC(CC(C3)C1)C2)OC12CC3CC(CC(C3)C1)C2`, “inactive”. As for `O=C(Nc1cc([As](=O)(O)O)ccc1O)c1ccccc1`, the entry is “inactive”; as for `CCOC(=O)c1ccc(NP(C)(=O)Oc2ccc(Cl)cc2)cc1` (stereo not drawn), “inactive”. On to `O=[N+]([O-])c1ncn(CCn2ncnc2[N+](=O)[O-])n1`, for which the outcome was inactive. Take `CC(C)(C)C(=O)NC(Sc1ccncn1)C(Cl)(Cl)Cl` (stereo not drawn): the compound was called inactive. On to `O=C(O)CNc1ccc([As](=O)(O)O)cc1`, for which the call was inactive. In the case of `COC(=O)C1(C)COP(=O)(Nc2ccccc2)OC1` (stereo not drawn), the call was inactive. With `O=[N+]([O-])c1cccc(NC2=NCC(CBr)S2)c1` (stereo not drawn), the call was inactive. In the case of `O=P(Nc1nc2ccc(Cl)cc2s1)(c1ccccc1)c1ccccc1` it was “inactive”; in that of `Cc1cc(C)cc(OP(C)(=O)Nc2cccc(C(F)(F)F)c2)c1` (stereo not drawn), “inactive”; in that of `CN(C)P(=O)(N(C)C)n1c(Nc2ccccc2)nnc1-c1ccccc1`, “inactive”. In the case of `O=C1C(O)=C([N+](=O)[O-])C(=O)C(O)=C1[N+](=O)[O-]`, the compound was classed as inactive. As for `CCCC1OP(N)(=O)OCC1CC` (stereo not drawn), the outcome was inactive. As for `CC(=O)Nc1ccc([As](=O)(O)O)cc1`, the entry is “inactive”; as for `O=C(O)c1ccccc1[As](=O)(O)O`, “inactive”. As for `COc1ccc(OP(C)(=O)Nc2ccccc2Br)cc1` (stereo not drawn), the entry is “inactive”. For `COc1ccccc1OP(C)(=O)Nc1ccc(C)c(C)c1` (stereo not drawn), the call was inactive. With `Cc1ccc(NP(=O)(Oc2ccccc2F)Oc2ccccc2F)nc1`, the result was inactive. On to `CN(C(=O)Cc1ccc(Cl)c(Cl)c1)[C@H]1CCCC[C@@H]1N1CCCC1`, for which the call was inactive. As for `Cc1cc(SC(NC(=O)c2ccc(F)cc2)C(Cl)(Cl)Cl)ncn1` (stereo not drawn), the entry is “inactive”; as for `CCOP(=O)(Nc1ccccc1)OCC`, “inactive”; as for `CP(=O)(Nc1ccc(Cl)cc1Cl)Oc1ccccc1` (stereo not drawn), “inactive”. As for `CCCCCCCCCCCCCCCC1C[N+](C)(C)CCOP(C)(=O)O1` (stereo not drawn), the entry is “inactive”.
